Tests used:
FGF receptor (FGFr) = FGF receptor (FGFr) (UniProt P11362); experiment: FGFr tyrosine kinase activity, poly E4Y / 32P-ATP phosphorylation assay; conditions: read-out: IC50 (μM) FGFr; Table 3, Formula II compounds; NI = no inhibition at 100 μg/mL
Protocol: (§1) The tyrosine kinase activity of Src, Csk and FGFr was determined using poly E4Y and ^32P-ATP. Briefly, enzymes were assayed in a reaction mixture consisting of 0.15 M EPPS-NaOH (pH 8.0) with 6 mM MgCl2, 0.2 mM γ^32P-ATP (0.2-0.4 mCi/μmol), 10% glycerol, 0.1% Triton X-100, and poly E4Y. Poly E4Y is a synthetic peptide whose phosphorylation is measured in this assay by the addition of the radioactively labeled phosphate from the ATP (Budde et al., 1995). For screening assays, 50 μg/ml poly E4Y was used, and for Ki determinations variable concentrations (0, 20, 30, 75, and 150 μg/ml) of poly E4Y were used. When ATP was varied (0, 50, 100 and 250 μM), poly E4Y was kept constant at 150 μg/ml.

Protein sequences, listed by entry. Tags and fused reporters are not part of them. Residues count along the entry.
UniProt P11362, 22-822 limits assumed: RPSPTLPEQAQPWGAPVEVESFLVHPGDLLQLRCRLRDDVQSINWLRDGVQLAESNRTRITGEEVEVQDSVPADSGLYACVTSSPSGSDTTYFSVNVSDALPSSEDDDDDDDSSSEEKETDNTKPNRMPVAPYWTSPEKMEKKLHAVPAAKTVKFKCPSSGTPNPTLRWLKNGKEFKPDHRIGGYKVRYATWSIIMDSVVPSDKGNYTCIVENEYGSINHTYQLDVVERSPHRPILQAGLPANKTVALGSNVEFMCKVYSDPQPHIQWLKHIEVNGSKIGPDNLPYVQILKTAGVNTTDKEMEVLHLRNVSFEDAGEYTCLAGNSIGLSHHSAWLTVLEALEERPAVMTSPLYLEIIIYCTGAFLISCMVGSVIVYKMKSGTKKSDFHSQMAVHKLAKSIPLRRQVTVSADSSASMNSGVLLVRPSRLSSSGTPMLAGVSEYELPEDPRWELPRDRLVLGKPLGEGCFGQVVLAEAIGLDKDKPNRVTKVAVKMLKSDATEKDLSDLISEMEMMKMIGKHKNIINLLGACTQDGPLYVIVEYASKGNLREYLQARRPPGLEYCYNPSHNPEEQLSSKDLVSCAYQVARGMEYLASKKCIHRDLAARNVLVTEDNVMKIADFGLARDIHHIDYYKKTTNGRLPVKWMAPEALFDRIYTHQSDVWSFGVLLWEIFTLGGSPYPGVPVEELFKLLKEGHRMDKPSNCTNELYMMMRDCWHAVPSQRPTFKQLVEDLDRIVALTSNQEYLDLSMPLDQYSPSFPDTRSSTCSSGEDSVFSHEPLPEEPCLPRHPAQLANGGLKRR
UniProt P41240, whole entry: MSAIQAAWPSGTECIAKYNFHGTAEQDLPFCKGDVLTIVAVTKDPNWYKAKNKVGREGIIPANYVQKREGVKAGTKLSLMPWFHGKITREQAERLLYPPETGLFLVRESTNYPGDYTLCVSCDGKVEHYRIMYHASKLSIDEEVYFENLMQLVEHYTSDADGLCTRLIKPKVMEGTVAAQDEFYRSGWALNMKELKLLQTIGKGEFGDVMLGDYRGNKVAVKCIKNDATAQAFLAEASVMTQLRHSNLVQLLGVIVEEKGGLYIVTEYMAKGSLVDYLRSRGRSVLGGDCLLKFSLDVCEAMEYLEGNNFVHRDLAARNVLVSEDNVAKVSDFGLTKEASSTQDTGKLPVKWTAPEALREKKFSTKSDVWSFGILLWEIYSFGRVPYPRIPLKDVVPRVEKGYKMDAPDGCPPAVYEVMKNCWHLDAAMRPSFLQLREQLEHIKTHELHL
UniProt P12931, whole entry: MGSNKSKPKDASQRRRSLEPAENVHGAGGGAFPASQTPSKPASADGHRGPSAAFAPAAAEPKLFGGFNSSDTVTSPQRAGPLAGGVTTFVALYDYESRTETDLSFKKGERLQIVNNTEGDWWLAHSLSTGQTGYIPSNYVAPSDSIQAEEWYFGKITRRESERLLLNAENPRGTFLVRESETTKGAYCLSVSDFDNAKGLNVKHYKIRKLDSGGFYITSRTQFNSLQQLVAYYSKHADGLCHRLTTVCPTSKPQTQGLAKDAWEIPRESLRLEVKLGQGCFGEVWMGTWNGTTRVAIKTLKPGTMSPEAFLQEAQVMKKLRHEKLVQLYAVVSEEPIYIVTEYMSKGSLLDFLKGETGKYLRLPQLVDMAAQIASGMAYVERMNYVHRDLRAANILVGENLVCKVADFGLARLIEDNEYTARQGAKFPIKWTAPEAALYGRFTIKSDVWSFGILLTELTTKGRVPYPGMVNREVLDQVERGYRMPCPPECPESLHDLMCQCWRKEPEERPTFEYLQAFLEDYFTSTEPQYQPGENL

Recombinant Csk = Recombinant Csk (Homo sapiens, UniProt P41240); experiment: Csk tyrosine kinase activity, poly E4Y / 32P-ATP phosphorylation assay; conditions: read-out: IC50 (μM) Csk; Table 3, Formula II compounds; NI = no inhibition at 100 μg/mL
Protocol: as §1

Recombinant human Src = Recombinant human Src (Homo sapiens, UniProt P12931); experiment: Src tyrosine kinase activity, poly E4Y / 32P-ATP phosphorylation assay; conditions: read-out: IC50 (μM) Src; Table 3, Formula II compounds; NI = no inhibition at 100 μg/mL
Protocol: Recombinant human Src was expressed using the baculovirus-insect cell system and purified as published (Budde et al., 1993 and 2000). Recombinant Csk and the FGF receptor (FGFr) were expressed as […] fusion proteins using the pGEX expression vector and E. coli, and purified as described (Sun & Budde, 1995).
as §1, with “μg/ml. […]” for “μg/ml.”

Compound: Cc1ccc(S(=O)(=O)Nc2ccc(Oc3ccc(C(=O)O)cc3)cc2NS(=O)(=O)c2ccc(C)cc2)cc1
- IC50 (FGF receptor (FGFr)): 24 µM
- IC50 (Recombinant Csk): 118 µM
- IC50 (Recombinant human Src): 9 µM
